Results from US8637558B2 (Industry-Academic Cooperation Foundation, Chosun University, priority 2008, dated 2014).

Sequences of proteins named here, by UniProt entry; tags and fusion partners are left off. A change or cut given only in a name is not applied to a line headed by its entry.
UniProt P15428: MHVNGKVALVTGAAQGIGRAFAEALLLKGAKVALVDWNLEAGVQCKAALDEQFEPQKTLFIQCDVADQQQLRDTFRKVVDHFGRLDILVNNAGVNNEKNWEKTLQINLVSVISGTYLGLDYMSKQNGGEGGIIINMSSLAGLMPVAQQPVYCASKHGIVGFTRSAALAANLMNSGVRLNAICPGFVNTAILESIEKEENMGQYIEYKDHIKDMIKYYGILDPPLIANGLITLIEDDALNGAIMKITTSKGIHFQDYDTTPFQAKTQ

Target: 15-PGDH (Homo sapiens (Human), UniProt P15428)
Assay: Assay for the activities of 15-PGDH inhibitors (formation of NADH at 340 nm)
Type: biochemical
Conditions: purified 15-PGDH enzyme, 21 μM PGE2, 0.25 mM NAD+, pH 7.5; concentration inhibiting 50% of 15-PGDH activity
Procedure: <1-1> Expression and Purification of 15-PGDH
A 15-PGDH cDNA plasmid containing BamHI and EcoRI sites of the pGES-2T expression vector was used to transform Escherichia coli BL-21 lysS in accordance with the ordinarily used in the art. The transformed cells were grown in 500 mL LB medium containing 50 μg/mL ampicillin at 37° C. while being stirred at 220 rpm until the OD600 reached 0.6. Isopropyl β-D-thiogalactoside (1 mM) was added and the cells were allowed to grow for 12 hours at 25° C. Then, the pellets were harvested by centrifugation at 4000×g for 30 minutes at 4° C. The cell pallets were resuspended in 20 mL cell lysis buffer (1×PBS buffer (pH 7.4) containing 1 mM EDTA and 0.1 mM DTT) and sonicated (14×10 s at 4° C.). The disrupted cells were centrifuged at 4000×g for 20 minutes at 4° C. The supernatant was loaded slowly on a glutathione-sepharose 4B column, which was equilibrated at 4° C. with a cell lysis buffer (1×PBS buffer (pH 7.4) containing 1 mM EDTA and 0.1 mM DTT). […] The concentration and the purity of the purified enzyme were determined by SDS-PAGE. […]
The absorbance of the reaction mixture was recorded at 340 nm so that the activities of the derivatives according to the present invention as 15-PGDH inhibitors were determined from a standard curve prepared from the absorbance of various concentrations of NADH at 340 nm.

IC50: 257 nM
Substance: 5-(3-(benzyloxy)-2-chlorobenzylidene)thiazolidine-2,4-dione [Derivative 72]
